Details: 160 mg per 1 ml saline injected into capsule

Substance: gentamicin
- uptake in the blood from tissue capsule (blood levels at 0, 1, 4, 12, 24, 48, 72 hours): slow uptake in the blood
- bloodstream level reached (steady state over a few days): very low (non-pharmacologic) bloodstream dose
